# From paper PMC11679574 (2024)
# Experiments:
# Caco-2 [1] = conditions: cited from earlier work
# Caco-2 [2] = conditions: cited from earlier work; remark: listed apart in the source
substance,measurement,setting,value
Dextran-FITC 4 kDa [FD4],"Papp A to B, Flow",Caco-2 [1],0.25 ×10⁻⁶ cm/s
same,Papp,Caco-2 monolayers,< 1 ·10^−6 cm/s
same,Permeability difference translucent vs transparent membranes,Caco-2 monolayers,1.3 fold
same,Papp,enteroid monolayers,< 1 ·10^−6 cm/s
same,"Papp A to B, Flow",enteroid monolayers,0 ×10⁻⁶ cm/s
same,Permeability difference translucent vs transparent membranes,enteroid monolayers,2.3 fold
same,"Papp A to B, Static",Caco-2 [2],<0.1 ×10⁻⁶ cm/s
